# Assay results as given in patent publication US5795859A (priority 1991, dated 1998).
# Test system: Meth A ascites tumour-bearing mice
# Experiment: LPS lethality in Meth A ascites tumour-bearing mice
# Assay type: in vivo
# Details: 500 μg E.coli LPS, peptide s.c.; survival up to 64 hours; * heightened activity
# Description: The number of surviving animals was then observed at 18 hours and 24 hours post TN? treatment. In experiments which assessed the effects of 1-related peptides on LPS lethality the mice were administered 500 μg E.coli LPS and peptide or other treatment in a similar manner. In LPS experiments polymyxin B, an LPS inhibitor, replaced MAb 47 as a positive control. The number of animals surviving was assessed at intervals up to 64 hours after LPS challenge.
substance,measurement,value
ARG THR PRO SER ASP LYS VAL PRO ALA HIS VAL VAL ALA (RTPSDKVPAHVVA; printed: ARG THR PRO SER ASP LYS VAL PRO ALA HIS VAL VAL ALA) [Peptide 2],IN VIVO LPS TOXICITY METH A,+ (10 animals per group scored positive if 7 or more survive)
